The text below walks through data of PubChem BioAssay (NCI).

Some test systems named below: NCI/ADR-RES ovarian; T-47D breast; MDA-MB-435 melanoma; SW-620 colon; MCF7 breast; HCT-116 colon; HCC-2998 colon; KM12 colon; BT-549 breast.
Common to all, as to test: NCI-60 one-dose screen, 48 h (100 = growth as untreated, 0 = no growth, -100 = all killed)
Holding throughout (conditions): 10 µM

“And” between values parts separate entries of the source, which are not always exact repeats. Equal values may be shown once. The entries are a selection whose mix differs from that of the whole data set.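 Growth was measured after 48 h exposure to one concentration of compound in 96-well plates. Values under 10 count as active.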 The source made the active and inactive calls.

With `O=C1CCN(Cc2ccccc2)CC1`, the growth with NCI/ADR-RES ovarian is inactive: 109%; in the assay with T-47D breast, inactive: 108%; in the assay on MDA-MB-435 melanoma it was inactive: 102%; in the assay on SW-620 colon, inactive: 101%; with MCF7 breast it was inactive: 107%; with HCT-116 colon it was inactive: 101%. Further, the growth is inactive: 117% in the assay with HCC-2998 colon and inactive: 106% with KM12 colon.
With `N#CC(C#N)=Cc1ccc2c(c1)OCO2`, the growth with NCI/ADR-RES ovarian was inactive: 103% and inactive: 105%; in the assay with T-47D breast, inactive: 98.4%; in the assay on BT-549 breast, inactive: 109% and inactive: 89.7%; with MDA-MB-435 melanoma, inactive: 109% and inactive: 107%; in the assay on SW-620 colon it was inactive: 98.1% and inactive: 106%; in the assay with MCF7 breast, inactive: 103% and inactive: 88.6%. Further, the growth in the assay on HCT-116 colon was inactive: 96.2% and inactive: 93.6%; with HCC-2998 colon, inactive: 105% and inactive: 106%; in the assay on KM12 colon, inactive: 104% and inactive: 102%.
With `ClCCN(CCCl)CCc1ccccc1`, the growth with NCI/ADR-RES ovarian is inactive: 98.3%; in the assay with T-47D breast, inactive: 95.3%; with BT-549 breast it was inactive: 98.7%; with MDA-MB-435 melanoma it was inactive: 115%; in the assay on SW-620 colon, inactive: 97.9%; in the assay on MCF7 breast, inactive: 94.1%. Moreover, the growth is inactive: 101% with HCT-116 colon, inactive: 100% in the assay on HCC-2998 colon and inactive: 108% with KM12 colon.
`NC(Cc1ccccc1N(CCCl)CCCl)C(=O)O` (stereo not drawn): the growth in the assay on NCI/ADR-RES ovarian was inactive: 61.7%; in the assay with T-47D breast, inactive: 51.7%; with MDA-MB-435 melanoma, inactive: 97.9%; in the assay on SW-620 colon it was inactive: 65.8%; in the assay with MCF7 breast it was inactive: 49%; in the assay on HCT-116 colon, inactive: 69%. For the same compound, the growth with HCC-2998 colon is active: -46.5%; in the assay on KM12 colon it was inactive: 92.1%.
As for `N#CC(C#N)=Cc1ccc(N(CCCl)CCCl)cc1`, the growth is inactive: 76.3% in the assay with NCI/ADR-RES ovarian; inactive: 67.1% in the assay on T-47D breast; inactive: 79.2% in the assay on BT-549 breast; inactive: 97.5% in the assay with MDA-MB-435 melanoma; inactive: 89.5% with SW-620 colon; inactive: 59.3% with MCF7 breast. Besides, the figures for the growth in the assay with HCT-116 colon, in the assay with HCC-2998 colon and with KM12 colon were inactive: 76.4%, inactive: 96% and inactive: 94.3%, respectively.
As for `O=C(O)CCCCc1ccc(N(CCCl)CCCl)cc1`, the growth in the assay with NCI/ADR-RES ovarian is inactive: 86.1%; in the assay on T-47D breast, inactive: 96.4%; with BT-549 breast, inactive: 88.4%; in the assay with MDA-MB-435 melanoma, inactive: 103%; in the assay with SW-620 colon it was inactive: 72.3%; in the assay on MCF7 breast, inactive: 74.5%. Further, the growth in the assay with HCT-116 colon was inactive: 82.6%; in the assay on HCC-2998 colon, inactive: 88.5%; in the assay with KM12 colon, inactive: 96.6%.
`ClCCN1CCN(CCCl)CC1`: the growth in the assay on NCI/ADR-RES ovarian was inactive: 103% and inactive: 100%; in the assay with T-47D breast, inactive: 90.5% and inactive: 92%; with BT-549 breast, inactive: 126% and inactive: 96.5%; in the assay on MDA-MB-435 melanoma, inactive: 101% and inactive: 105%; in the assay with SW-620 colon, inactive: 108% and inactive: 98.1%; in the assay on MCF7 breast, inactive: 87.5% and inactive: 101%. The growth with HCT-116 colon was inactive: 104% and inactive: 101%; in the assay on HCC-2998 colon, inactive: 103% and inactive: 106%; with KM12 colon, inactive: 111% and inactive: 102%.
With `C[N+](C)(CCCl)CCCl`, the growth with NCI/ADR-RES ovarian is inactive: 112%; in the assay with T-47D breast it was inactive: 96.6%; with BT-549 breast, inactive: 113%; in the assay on MDA-MB-435 melanoma it was inactive: 98.8%; in the assay with SW-620 colon it was inactive: 104%; in the assay on MCF7 breast, inactive: 97.5%. Further, the growth with HCT-116 colon was inactive: 110%; in the assay with HCC-2998 colon, inactive: 113%; in the assay on KM12 colon, inactive: 110%.
Regarding `O=Cc1ccc(N(CCCl)CCCl)cc1Cl`, the growth in the assay with NCI/ADR-RES ovarian was inactive: 80.2%; with T-47D breast, active: 6%; in the assay on BT-549 breast, inactive: 89.8%; with MDA-MB-435 melanoma, inactive: 99.2%; in the assay on SW-620 colon, inactive: 61%; with MCF7 breast, inactive: 16%. Further, the growth in the assay on HCT-116 colon is inactive: 35.6%; in the assay on HCC-2998 colon, inactive: 91.1%; in the assay on KM12 colon, inactive: 108%.
With `CC(C)(C)C(=O)CBr`, the growth in the assay with NCI/ADR-RES ovarian is inactive: 109%; with T-47D breast it was inactive: 99.3%; with BT-549 breast it was inactive: 96.7%; in the assay with MDA-MB-435 melanoma, inactive: 114%; in the assay with SW-620 colon, inactive: 102%; with MCF7 breast, inactive: 98.4%. Also, the figures for the growth in the assay on HCT-116 colon, with HCC-2998 colon and with KM12 colon were inactive: 100%, inactive: 108% and inactive: 106%, respectively.
For the compound `COc1cc(N(CCCl)CCCl)cc(OC)c1OC`, the growth in the assay with NCI/ADR-RES ovarian was inactive: 93.6%; in the assay on T-47D breast, inactive: 91.6%; with BT-549 breast, inactive: 85%; in the assay with MDA-MB-435 melanoma, inactive: 109%; in the assay on SW-620 colon, inactive: 84.5%; in the assay on MCF7 breast, inactive: 75.4%. In addition, the growth was inactive: 95.2% in the assay with HCT-116 colon, inactive: 96.5% with HCC-2998 colon and inactive: 102% in the assay with KM12 colon.
On to `N#Cc1ccc(N(CCCl)CCCl)cc1`, for which the growth in the assay on NCI/ADR-RES ovarian is inactive: 119%; in the assay on T-47D breast, inactive: 92.9%; with BT-549 breast, inactive: 113%; with MDA-MB-435 melanoma it was inactive: 97.9%; in the assay with SW-620 colon it was inactive: 104%; in the assay on MCF7 breast, inactive: 102%. The growth was inactive: 99.2% in the assay on HCT-116 colon and inactive: 108% in the assay on KM12 colon.
`Cn1c(=O)[nH]cc(N(CCCl)CCCl)c1=O`: the growth in the assay on NCI/ADR-RES ovarian is inactive: 76.6%; in the assay with T-47D breast, inactive: 111%; with BT-549 breast, inactive: 94.6%; with MDA-MB-435 melanoma, inactive: 104%; in the assay with SW-620 colon it was inactive: 68%; in the assay on MCF7 breast, inactive: 73.1%. The growth with HCT-116 colon is inactive: 82.3%; with HCC-2998 colon it was inactive: 84.1%; with KM12 colon, inactive: 102%.
For `ClCCN(CCCl)Cc1ccc2c(c1)OCO2`, the growth in the assay on NCI/ADR-RES ovarian was inactive: 80.6%; in the assay on T-47D breast it was inactive: 70.3%; in the assay with BT-549 breast it was inactive: 75.2%; with MDA-MB-435 melanoma, inactive: 112%; in the assay on SW-620 colon, inactive: 76.9%; in the assay on MCF7 breast it was inactive: 51.4%. Moreover, the figures for the growth in the assay with HCT-116 colon, with HCC-2998 colon and in the assay on KM12 colon were inactive: 72.3%, inactive: 87.4% and inactive: 105%, respectively.
